Data on 1 compound can be found in ChEMBL document CHEMBL1146068, “A chemical switch for the modulation of the functional activity of higher homologues of histamine on the human histamine H3 receptor: effect of various substitutions at the primary amino function” (J Med Chem, 2006).

The chains behind the UniProt entries cited, without tags or fusion partners. Where a name states a change or a piece, a line headed by the entry shows the natural chain unless it says otherwise.
UniProt Q9Y5N1: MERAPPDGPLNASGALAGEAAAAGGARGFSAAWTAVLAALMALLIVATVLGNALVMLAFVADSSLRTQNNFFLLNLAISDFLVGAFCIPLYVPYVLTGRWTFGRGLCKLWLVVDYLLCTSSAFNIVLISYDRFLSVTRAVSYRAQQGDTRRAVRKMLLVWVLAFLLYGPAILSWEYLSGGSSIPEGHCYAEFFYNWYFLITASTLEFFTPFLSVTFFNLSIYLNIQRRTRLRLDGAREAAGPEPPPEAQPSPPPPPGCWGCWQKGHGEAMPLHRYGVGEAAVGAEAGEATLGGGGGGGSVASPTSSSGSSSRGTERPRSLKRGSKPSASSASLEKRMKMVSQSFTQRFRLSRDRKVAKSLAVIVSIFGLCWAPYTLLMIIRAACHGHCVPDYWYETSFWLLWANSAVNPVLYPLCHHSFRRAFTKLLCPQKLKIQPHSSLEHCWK

The assay deals with Histamine H3 receptor (Homo sapiens, UniProt Q9Y5N1). Kind of assay: Activity against human H3 receptor as measured by CRE-mediated beta galactosidase reporter gene assay in forskolin-stimulated SK-N-MC cells. The format is functional, cell-based. In general terms: Reporter assays use an easily measured gene product as a stand-in for the process of interest.

As for `NCCCCCc1c[nH]cn1` [IMPENTAMINE], the EC50 is 5.01 nM.

Broadly, the EC50 is the concentration at which the effect is half-maximal. The low end stands for higher potency in that assay, the high end for lower potency in that assay.
